According to patent publication US4789667A, “External pharmaceutical composition and methods of use” (priority 1984, dated 1988):

Assay: Drug diffusion through egg shell membrane in diffusion cell with dodecyl L-pyroglutamate
Conditions: control without enhancer = 100; drug 0.05%, dodecyl L-pyroglutamate 1.0% in donor side, 37° C

For O=[N+]([O-])O[C@H]1CO[C@H]2[C@@H]1OC[C@H]2O[N+](=O)[O-], the “Relative amount of permeation after 30 minutes” value was 119.
